From patent US8986418B1, “Method and system for agricultural fertigation” (priority 2008, dated 2015)
Several values for one entry are separate records, joined by “and”; a condition that tells them apart may be missing. Identical values can stand only once.

Legend:
[1] = cited from earlier work
[2] = Maximum calcium in irrigation water together with phosphate fertilizer (solubility threshold); type: physicochemical; conditions: water pH 6.5
From the text: These fertilizers are not slug fed simultaneously because the slug-fed calcium concentration is vastly higher than the threshold level beyond which precipitation will occur when added together with phosphate. In more detail, when added as shown above, namely 17.5 lbs/acre calcium (as Ca) with a water usage of 0.0133 ac-ft/acre (on both March 1 and July 1), the calcium addition rate is 487.1 ppm Ca+2 or 1218 ppm (as CaCO3). (Using the same calculation method, the addition rate of 35.00 lbs/acre phosphate (as P2O5) on March, 30 and September 15 is 1304 ppm PO4-3.) The maximum amount of calcium that can be present in the irrigation water concomitantly with that phosphate-based fertilizer, at a water pH of 6.5, is 4.4 ppm calcium (as CaCO3).
When simultaneously feeding both a calcium and the above-indicated amount of phosphate crop-quality enhancer at a water pH of 6.5 using the method and system of the present invention, the maximum amount of calcium that can be present in the irrigation water is 94.8 ppm calcium (as Ca) for 14.81 ppm PO4-3 and 78.2 ppm calcium (as Ca) for 19.75 ppm PO4-3. Exceeding that maximum will, due to calcium/phosphate interaction and/or precipitation, will lead to plugging of the irrigation system. As indicated above, the calcium (as Ca) concentration in the irrigation water is 3.08 ppm calcium (as Ca) during the continuous fertigation process from March 1 through May 31 and is 6.13 ppm calcium (as Ca) during the continuous fertigation process from September 1 through October 31. (There is no addition of phosphate June through August.) The calcium-concentration threshold above which there is a irrigation-system plugging problem, is thirty-six times higher than the highest calcium concentration used in this projection.
For the first injection of a phosphate fertilizer the maximum amount of calcium that can be present in the irrigation water concomitantly with that phosphate-based fertilizer, at a water pH of 6.5, is 2.5 ppm calcium (as Ca). For the second injection of a phosphate fertilizer the maximum amount of calcium that can be present in the irrigation water concomitantly with that phosphate-based fertilizer, at a water pH of 6.5, is 4.2 ppm calcium (as Ca). The 695.9 ppm (as Ca) addition rate is about 278 times higher than that threshold for the first injection of phosphate fertilizer. The 278.4 ppm (as Ca) addition rate is about 66.3 times higher than that threshold for the second injection of phosphate fertilizer.
When simultaneously feeding both a calcium and the above-indicated amount of phosphate crop-quality enhancer at a water pH of 6.5 using the method and system of the present invention, the maximum amount of calcium that can be present in the irrigation water is 124 ppm calcium (as Ca). Exceeding that maximum will, due to calcium/phosphate interaction and/or precipitation, lead to plugging of the irrigation system. As indicated above, the calcium (as Ca) concentration in the irrigation water is 5.54 ppm calcium (as Ca) during the continuous fertigation process from March 1 through May 31 and is 7.38 ppm calcium (as Ca) during the continuous fertigation process from September 1 through October 31. […]

Compound | Solubility with anion CO3^−2 ([1]; anion CO3^−2) | Solubility with anion Cl ([1]; anion Cl) | Solubility with anion HCO3^− ([1]; anion HCO3^−) | Solubility with anion NO3^− ([1]; anion NO3^−) | Solubility with anion OH^− ([1]; anion OH^−) | Solubility with anion PO4^−3 ([1]; anion PO4^−3) | Solubility with anion SO4^−2 ([1]; anion SO4^−2) | maximum amount of calcium that can be present in the irrigation water ([2]; 9.88 ppm PO4-3 (Example 5)) | maximum amount of calcium that can be present in the irrigation water ([2]; 14.81 ppm PO4-3 (Example 2)) | maximum amount of calcium that can be present in the irrigation water ([2]; 19.75 ppm PO4-3 (Example 2)) | maximum amount of calcium that can be present in the irrigation water concomitantly with phosphate-based fertilizer ([2]; 1304 ppm PO4-3 (Comparative Example B slug feed)) | maximum amount of calcium that can be present in the irrigation water concomitantly with phosphate-based fertilizer ([2]; second injection of phosphate fertilizer, October 30 (Comparative Example E))
[Ca+2] [Ca^+2] | I (I means insoluble (<20 ppm)) | S (S means soluble (over 5,000 ppm)) | SS (SS means slightly soluble (2,000 to 5,000 ppm)) | S (S means soluble (over 5,000 ppm)) | VSS (VSS means very slightly soluble (20-2,000 ppm)) | I (I means insoluble (<20 ppm)) | VSS (VSS means very slightly soluble (20-2,000 ppm)) |  |  |  |  | 
[Ca+2] [calcium] |  |  |  |  |  |  |  | 124 ppm calcium (as Ca) and 124.1 ppm calcium (as Ca) | 94.8 ppm calcium (as Ca) | 78.2 ppm calcium (as Ca) | 4.4 ppm calcium (as CaCO3) | 4.2 ppm calcium (as Ca) and 7.38 ppm calcium (as Ca)
